Literature values in PMC11926787 (ACS Chemical Neuroscience, 2025).

Settings: reference number not given; cited from earlier work

## [^3H] harman
  time of detection in brain after intravenous administration: 30 min
